Laboratory results as given in patent US10538545B2 (priority 2017, dated 2020).

Assays:
WT-AB zebrafish embryos = assay: Toxicity test of DNIC in zebrafish embryos; details: 50 μM DNIC, 200 μM SNP; for acute toxicity on zebrafish embryo: 3-dpf zebrafish, 30 minutes; for Survival rate of zebrafish, Day 3 / Survival rate of zebrafish, Day 4 / Survival rate of zebrafish, Day 5: incubated 30 minutes on day 3, n = 300
[1] = In vitro release of NO from DNIC-1 determined by Griess reagent; details: 15 μM DNIC, 25 mM KPi buffer pH 7.0, aerobic, 48 hours
[2] = Time-dependent decomposition of DNIC-1 in buffer monitored by UV-vis; details: for half-life of decomposition: aerobic 25 mM KPi buffer, pH 7.0, pseudo-first order kinetics assumed
[3] = tested on: AB (wild type) zebrafish embryos; assay: Analysis of myocardial contractility and cardiac output in zebrafish embryos; type: in vivo
[4] = tested on: Tg (kdr:EGFP) zebrafish embryos; assay: Analysis of vasodilation in zebrafish embryos (dorsal aorta diameter); type: in vivo; details: 3-dpf KDR zebrafish, 30 min; 50 μM DNIC-1b, 50 μM DNIC-2a, 200 μM SNP; control 21.2 ± 0.2
C. elegans (N2) [5] = assay: In vivo release of NO from DNIC-1a in C. elegans (FA-OMe fluorescence); details: 500 μM for 15 minutes, then FA-OMe 0.5 hour
C. elegans = assay: Analysis of cell senescence in C. elegans (SA-βgal activity, X-gal); details: 10 μM for 15 minutes on Day 1, 4 and 7; 13-day-old worms
C. elegans (N2) [6] = assay: Analysis of lifespan in C. elegans; details: 10 μM for 15 minutes on Day 1, 4 and 7, n=200
C. elegans (N2) [7] = assay: Uptake and export of DNIC-1a in C. elegans (Fe content by ICP-MS); details: N2 worms incubated with 500 μM for 15 minutes; untreated 46.8±3.6
[8] = tested on: soluble guanylate cyclase (sGC); assay: Activation of sGC in CX3553 (str-1::GFP) worms; type: in vivo, C. elegans; details: 400 μM for 30 minutes

Substance: [(NO)2Fe(μ-SEtCOOH)2Fe(NO)2]
- acute toxicity on zebrafish embryo (WT-AB zebrafish embryos): no acute toxicity
- Survival rate of zebrafish, Day 3 (WT-AB zebrafish embryos): 100 ± 0.0%
- Survival rate of zebrafish, Day 4 (WT-AB zebrafish embryos): 100 ± 0.0%
- Survival rate of zebrafish, Day 5 (WT-AB zebrafish embryos): 100 ± 0.0%
- Total amount of NO released determined by Griess reagent [1]: 26.1 ± 0.1 µM
- half-life of decomposition [2]: 25.9 ± 0.4 h
- change of short-axis diameter of the heart and ventricular volume at end diastole (ED) ([3]; 50 μM DNIC-1b, 200 μM SNP, 30 minutes): significant increase
- Fractional Shortening ([3]; 30 min, 50 μM DNIC-1b, 50 μM DNIC-2a, 200 μM SNP, 5 μg/mL epinephrine, control 0.14 ± 0.02): 0.22 ± 0.03
- Short Axis Diameter ED(Dd) ([3]; end diastole, 30 min, 50 μM DNIC-1b, 50 μM DNIC-2a, 200 μM SNP, 5 μg/mL epinephrine, control 82.2 ± 2.0): 92.3 ± 2.9 μm
- Ventricular Volume ED ([3]; end diastole, prolate spheroid assumed, same treatments, control 0.55 ± 0.02): 0.66 ± 0.05 nL
- Short Axis Diameter ES(Ds) ([3]; end systole, 30 min, 50 μM DNIC-1b, 50 μM DNIC-2a, 200 μM SNP, 5 μg/mL epinephrine, control 70.4 ± 2.5): 72.3 ± 3.1 μm
- Ventricular Volume ES ([3]; end systole, prolate spheroid assumed, same treatments, control 0.33 ± 0.02): 0.32 ± 0.05 nL
- Cardiac Output ([3]; heart rate × (ED volume − ES volume), same treatments, control 25.9 ± 4.5): 45.8 ± 5.1 nL/min
- Ventricular Volume ED-ES ([3]; same treatments, control 0.21 ± 0.02): 0.34 ± 0.05 nL
- Heart Rate ([3]; same treatments, control 124 ± 4): 133 ± 5 bpm
- Vessel Diameter (dorsal aorta diameter) [4]: 23.0±1.1 μm

Substance: [(NO)2Fe(μ-SEtOH)2Fe(NO)2]
- acute toxicity on zebrafish embryo (WT-AB zebrafish embryos): dramatic death of 5-dpf zebrafish
- Survival rate of zebrafish, Day 3 (WT-AB zebrafish embryos): 100 ± 0.0%
- Survival rate of zebrafish, Day 4 (WT-AB zebrafish embryos): 86.4 ± 10.5%
- Survival rate of zebrafish, Day 5 (WT-AB zebrafish embryos): 62.3 ± 19.3%
- NO release in C. elegans (FA-OMe fluorescence) (C. elegans (N2) [5]): released ●NO in the intestine of C. elegans
- Total amount of NO released determined by Griess reagent [1]: 30.3 ± 1.0 µM
- cell senescence (SA-βgal activity) (C. elegans): significantly delayed the cell senescence
- lifespan (C. elegans (N2) [6]; control 16.9±0.5 days): 18.7 ± 0.4 days
- extension of lifespan (C. elegans (N2) [6]; vs 0 μM): 10.7%
- half-life of decomposition [2]: 27.4 ± 0.5 h
- stability under anaerobic condition ([2]; anaerobic condition): stability
- total amount of Fe right after treatment (C. elegans (N2) [7]): 190.7±39.4 ng per 100 worms
- increase of the GFP fluorescence signal in CX3553 worms [8]: about 5.7 fold

Substance: [(NO)2Fe(μ-SPhCOOH)2Fe(NO)2]
- Total amount of NO released determined by Griess reagent [1]: 24.4 ± 0.2 µM
- half-life of decomposition [2]: 0.6 ± 0.1 h
